{
  "source": "PubChem BioAssay AID624354",
  "about": "(Sanford-Burnham Center for Chemical Genomics, 2012)",
  "note": "This is a selection; strong and weak results do not stand in their true shares. Active and inactive are the calls of the source.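 Rule for the calls: active = compounds causing at least 50% loss of cell viability in the single-dose screen, relative to plate controls; inactive = the rest.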",
  "data": [
    {"assay": "viability loss with TRAIL in NB7+C8 cells, primary screen, TRAIL sensitizer project, cell-based, ATPlite luminescence (AID 624354)", "settings": "at 10 µM, hits give high values", "values": [
      {"smiles": "CCOc1ncccc1C(=O)NCC1(N2CCOCC2)CCCCC1", "inhibition (viability loss, TRAIL sensitization)": "inactive: 2.12%"},
      {"smiles": "CN1CCC(Nc2ccc(F)c(Cl)c2)CC1", "inhibition (viability loss, TRAIL sensitization)": "inactive: 7.04%"},
      {"smiles": "CC(C)(C)OC(=O)N1CCC(Nc2ccccc2)CC1", "inhibition (viability loss, TRAIL sensitization)": "inactive: 1.27%"},
      {"smiles": "O=C(O)C1(Nc2ccccc2)CCN(Cc2ccccc2)CC1", "inhibition (viability loss, TRAIL sensitization)": "inactive: 7.93%"},
      {"smiles": "NN(c1ccccc1)C1CCN(CCc2ccccc2)CC1", "inhibition (viability loss, TRAIL sensitization)": "inactive: -13.6%"},
      {"smiles": "O=c1[nH]c2ccccc2n1C1CCN(C(c2cc3ccccc3o2)c2nnnn2C2CCCC2)CC1", "note": "(configuration not stated)", "inhibition (viability loss, TRAIL sensitization)": "inactive: 17.9%"},
      {"smiles": "CCCOc1ccc(C(=O)NCC2(N(C)C)CCCCC2)cc1", "inhibition (viability loss, TRAIL sensitization)": "inactive: -22.1%"},
      {"smiles": "COc1cccc(C(c2nnnn2C2CCCC2)N2CCC(n3c(=O)[nH]c4ccccc43)CC2)c1OC", "note": "(configuration not stated)", "inhibition (viability loss, TRAIL sensitization)": "inactive: -9.79%"},
      {"smiles": "COc1cc(OC)cc(C(=O)NCC2(N3CCOCC3)CCCCC2)c1", "inhibition (viability loss, TRAIL sensitization)": "inactive: -1.72%"},
      {"smiles": "COc1cccc(C(=O)N(c2cc(C)cc(C)c2)C2CCN(C(=O)OC(C)(C)C)CC2)c1", "inhibition (viability loss, TRAIL sensitization)": "inactive: -12.5%"},
      {"smiles": "CCC(CO)(C(=O)OC1CN2CCC1CC2)c1ccccc1", "note": "(configuration not stated)", "inhibition (viability loss, TRAIL sensitization)": "inactive: -0.194%"},
      {"smiles": "CN1CCC(Nc2ccc(Cl)cc2)CC1", "inhibition (viability loss, TRAIL sensitization)": "inactive: -16.4%"},
      {"smiles": "COc1cccc(C(c2nnnn2C2CCCCC2)N2CCC(n3c(=O)[nH]c4ccccc43)CC2)c1OC", "note": "(configuration not stated)", "inhibition (viability loss, TRAIL sensitization)": "inactive: 18.2%"},
      {"smiles": "CC(=O)N(c1ccccc1)C1CCNCC1", "inhibition (viability loss, TRAIL sensitization)": "inactive: 1.37%"},
      {"smiles": "CCC(c1nnnn1C1CCCCC1)N1CCC(n2c(=O)[nH]c3ccccc32)CC1", "note": "(configuration not stated)", "inhibition (viability loss, TRAIL sensitization)": "inactive: 7.66%"},
      {"smiles": "COc1cc(OC)cc(C(=O)NCC2(N3CCCCC3)CCCCC2)c1", "inhibition (viability loss, TRAIL sensitization)": "inactive: 0.419%"},
      {"smiles": "O=c1[nH]c2ccccc2n1C1CCN(C(c2ccnc3ccccc23)c2nnnn2C2CCCCC2)CC1", "note": "(configuration not stated)", "inhibition (viability loss, TRAIL sensitization)": "inactive: 4.46%"},
      {"smiles": "Cc1ccc(C(=O)NCC2(N3CCCCC3)CCCCC2)o1", "inhibition (viability loss, TRAIL sensitization)": "inactive: -2.29%"},
      {"smiles": "Fc1ccccc1NC1CCN(Cc2ccccc2)CC1", "inhibition (viability loss, TRAIL sensitization)": "inactive: -4%"},
      {"smiles": "Cc1ccc(NC2(C#N)CCN(Cc3ccccc3)CC2)cc1", "inhibition (viability loss, TRAIL sensitization)": "inactive: -1.94%"},
      {"smiles": "Cc1ccccc1NC1(C#N)CCN(Cc2ccccc2)CC1", "inhibition (viability loss, TRAIL sensitization)": "inactive: -0.941%"},
      {"smiles": "COc1ccc(C(c2nnnn2C2CCCCC2)N2CCC(n3c(=O)[nH]c4ccccc43)CC2)cc1", "note": "(configuration not stated)", "inhibition (viability loss, TRAIL sensitization)": "inactive: 6.18%"},
      {"smiles": "CCN1CCC(Nc2cccc(F)c2)CC1", "inhibition (viability loss, TRAIL sensitization)": "inactive: -1.65%"},
      {"smiles": "CC(C)(C)n1nnnc1C(c1ccnc2ccccc12)N1CCC(n2c(=O)[nH]c3ccccc32)CC1", "note": "(configuration not stated)", "inhibition (viability loss, TRAIL sensitization)": "inactive: -2.46%"},
      {"smiles": "O=C(NCC1(N2CCCCC2)CCCCC1)c1ccco1", "inhibition (viability loss, TRAIL sensitization)": "inactive: 4.61%"},
      {"smiles": "CN(C)c1ccc(C(=O)NCC2(N3CCCCC3)CCCCC2)cc1", "inhibition (viability loss, TRAIL sensitization)": "inactive: 5.46%"},
      {"smiles": "Cn1c(=O)[nH]cc(N(CCCl)CCCl)c1=O", "inhibition (viability loss, TRAIL sensitization)": "inactive: -6.2%"},
      {"smiles": "N#Cc1ccc(C(=O)NCC2(N3CCCCC3)CCCCC2)cc1", "inhibition (viability loss, TRAIL sensitization)": "inactive: 1.22%"},
      {"smiles": "CC(C)(C)OC(=O)N1CCC(N(C(=O)c2ccccc2)c2ccc(Cl)cc2)CC1", "inhibition (viability loss, TRAIL sensitization)": "inactive: -3.91%"},
      {"smiles": "CN(C)C1(CNC(=O)c2cccc(C#N)c2)CCCCC1", "inhibition (viability loss, TRAIL sensitization)": "inactive: -24.7%"},
      {"smiles": "c1ccc(CN2CCC(Nc3ccccc3)CC2)cc1", "inhibition (viability loss, TRAIL sensitization)": "inactive: 4.04%"},
      {"smiles": "O=c1[nH]c2ccccc2n1C1CCN(C(c2ccccc2)c2nnnn2C2CCCC2)CC1", "note": "(configuration not stated)", "inhibition (viability loss, TRAIL sensitization)": "inactive: -13.5%"},
      {"smiles": "CCCN1CCC(Nc2cc(OC)cc(OC)c2)CC1", "inhibition (viability loss, TRAIL sensitization)": "inactive: -5.58%"},
      {"smiles": "Cc1cc(N(CCCl)CCCl)ccc1C=O", "inhibition (viability loss, TRAIL sensitization)": "inactive: -15.5%"},
      {"smiles": "CC(C)(C)n1nnnc1C(c1cccc2ccccc12)N1CCC(n2c(=O)[nH]c3ccccc32)CC1", "note": "(configuration not stated)", "inhibition (viability loss, TRAIL sensitization)": "inactive: 3.74%"},
      {"smiles": "CCCCn1nnnc1C(c1ccccc1)N1CCC(n2c(=O)[nH]c3ccccc32)CC1", "note": "(configuration not stated)", "inhibition (viability loss, TRAIL sensitization)": "inactive: 7.38%"},
      {"smiles": "COc1cc(C(=O)NCC2(N3CCOCC3)CCCCC2)cc(OC)c1C", "inhibition (viability loss, TRAIL sensitization)": "inactive: -22.5%"},
      {"smiles": "O=C(NCC1(N2CCOCC2)CCCCC1)c1cc(Br)ccc1Cl", "inhibition (viability loss, TRAIL sensitization)": "inactive: -1.93%"},
      {"smiles": "O=c1[nH]c2ccccc2n1C1CCN(C(c2cccs2)c2nnnn2C2CCCCC2)CC1", "note": "(configuration not stated)", "inhibition (viability loss, TRAIL sensitization)": "inactive: -0.569%"},
      {"smiles": "COc1ccc(C(=O)NCC2(N3CCOCC3)CCCCC2)cc1OC", "inhibition (viability loss, TRAIL sensitization)": "inactive: -6.93%"},
      {"smiles": "O=c1[nH]c2ccccc2n1C1CCN(C(c2ccnc3ccccc23)c2nnnn2C2CCCC2)CC1", "note": "(configuration not stated)", "inhibition (viability loss, TRAIL sensitization)": "inactive: -0.195%"},
      {"smiles": "CCOC(=O)N1CCC(Nc2ccc(C)cc2)CC1", "inhibition (viability loss, TRAIL sensitization)": "inactive: 1.01%"},
      {"smiles": "COc1cccc(C(c2nnnn2C(C)(C)C)N2CCC(n3c(=O)[nH]c4ccccc43)CC2)c1OC", "note": "(configuration not stated)", "inhibition (viability loss, TRAIL sensitization)": "inactive: 1.73%"},
      {"smiles": "N/C(=N\\O)c1c(N)no[n+]1[O-]", "inhibition (viability loss, TRAIL sensitization)": "inactive: 4.4%"},
      {"smiles": "O=C(OC1CN2CCC1CC2)C1c2ccccc2C=Cc2ccccc21", "note": "(configuration not stated)", "inhibition (viability loss, TRAIL sensitization)": "inactive: -4.69%"},
      {"smiles": "O=c1[nH]c2ccccc2n1C1CCN(C(c2cccs2)c2nnnn2C2CCCC2)CC1", "note": "(configuration not stated)", "inhibition (viability loss, TRAIL sensitization)": "inactive: 0.824%"},
      {"smiles": "CCCCn1nnnc1C(c1cccc(OC)c1OC)N1CCC(n2c(=O)[nH]c3ccccc32)CC1", "note": "(configuration not stated)", "inhibition (viability loss, TRAIL sensitization)": "inactive: -3.98%"}
    ]}
  ]
}
